Consider one compound from patent publication US20080269247A1, “Chemokine Inhibiting Piperazine Derivatives and Their Use to Treat Myocarditis” (priority 2003, published 2008).

This assay concerns Male Lewis rats. The note with it: rat, in vivo.

SMILES strings stand for the structures. “And” between values parts separate entries of the source, which are not always exact repeats. Equal values may be shown once.

For the compound `C[C@@H]1CN(Cc2ccc(F)cc2)CCN1C(=O)COc1ccc(Cl)cc1NC(N)=O` [(2R)-1-((4-chloro-2-(ureido)phenoxy)methyl)carbonyl-2-methyl-4-(4-fluorobenzyl)piperazine], the “Severity of EAM” value was “reduced the severity of EAM”. Under “sc, 50 mg/kg”, the “Cardiac function, FS (echocardiogram)” value is 46.7±3.6% and 39.4±4.1%.
